We go through one substance from patent US20120225135A1 (priority 2010, published 2012).

One experiment relates to Total microbio counts. Kind of experiment: Ammonia plant water system, total microbio counts. As to conditions: previous chlorine program, average.
The subject of a further experiment is biofilm. As to conditions: cited from earlier work.

For the substance chlorine, in the experiment on Total microbio counts, the Total microbio counts entry is “approximately 15,000 organisms/ml”. Moreover, the “effect on biofilm detachment” value in the experiment on biofilm is reported as “very poor to no effect”.
